Literature values as cited in patent publication US20070190132A1, “Pharmaceutical compositions for oral and topical administration” (IVAX-CR a.s., priority 1999, published 2007).

Settings: hydrates formed on standing

## paclitaxel hydrates
  equilibrium concentration in water: 0.3 to 0.6 µg/mL
